Screening results: PubChem, Broad Institute
Hits are enriched below; roughly 1.5% of the tested compounds scored in any of these assays.
Casp6 inh – human caspase-6 inhibitors, primary screen, biochemical, VEID-R110 fluorescence, single point, set 2. P55212. 0.53% of 350,000 active. inhibition, % at 12.5 µM. purified caspase-6, Z-VEID-R110 cleavage fluorescence;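 active = mean inhibition across replicates at least about 35%, with every replicate also reaching that limit, limit read from the data; inconclusive = only one of the two criteria met; inactive = neither criterion met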;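 also: 0% = median of neutral control wells and 100% = no fluorescence left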
RAD54 branch – inhibitors of human RAD54 branch migration, primary screen, biochemical, fluorescence, single point | AID 602329, 2012 | DNA repair and recombination protein RAD54-like (Homo sapiens), Q92698 | 0.14% of 360,000 active | inhibition, % at 10.4 µM | RAD54 Holliday junction branch migration, FAM/BHQ fluorescence;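 active = mean normalized replicate activity at least 40 and at least half of replicates scoring 40 or more; inconclusive = only one of the two criteria met; inactive = mean below 40 and under half of replicates reaching 40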;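 also: 0% = median of neutral control wells and 100% = median of positive control wells; inhibitors cause a drop in the FAM fluorescence signal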
GSIS activator – GLuc luminescence reporter in INS-1E cells, primary screen for activators of glucose-dependent secretion of insulin; INS-1E GLuc reporter insulin secretion, 2-3 h; activation, % at 16.6 µM; 0.61% of 370,000 active; AID 743287, 2014;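 active = lowest replicate activation of at least 40%, so every replicate reaches that level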;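 also: 0% = median of neutral control wells and 100% = median of IBMX positive control wells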
RAD52 inh – RAD52 DNA annealing inhibitors, primary screen, biochemical, FRET, single point, set 2 | DNA repair protein RAD52 homolog (Homo sapiens), P43351 | recombinant RAD52 DNA annealing, FRET fluorescence | inhibition, % at 18.7 µM | 0.46% of 360,000 active;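 active = every replicate showing at least 50% inhibition; inconclusive = mean inhibition at least 50% but not in every replicate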
Yeast UUG start-1 – alters start codon recognition fidelity in yeast. S. cerevisiae UUG-firefly luciferase reporter, luminescence/redox ratio. activity score, % at 18.7 µM. 0.13% of 350,000 active. AID 602363;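 active = replicate mean at a twofold rise or more, about +100% in these data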;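 also: firefly luciferase made from a UUG start codon reports start codon fidelity; reporter light over untreated wells divided by growth signal over untreated wells; some hits fall short of that in this replicate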
PglD inh – C. jejuni PglD acetyltransferase inhibitors, primary screen, biochemical, DTNB colorimetric, single point. inhibition, % at 12.5 µM. purified PglD enzyme, DTNB colorimetric CoA detection. 0.098% of 360,000 active. UDP-N-acetylbacillosamine N-acetyltransferase PglD (Campylobacter jejuni). AID 602405, 2012; in the data active = inhibition above about 16%, passing the limit was not always enough; inconclusive = no clear call, values can overlap the other calls
DNA binding – DNA binding of candidate compounds, dose response, artefact control for RAD54 inhibitor project, biochemical, fluorescence polarization, cherry-pick. shares compounds with RAD54 branch. Acridine orange-DNA displacement, 20 min. AC50, µM (series often up to 35 µM), for inactives: top-dose activity change, negative = DNA binding. 8% of 460 active. AID 651673, 2012;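 active = signal drop giving an AC50 within twice the top valid tested concentration of each sample, actives reach about 35 µM in these data; inactive = activity opposite to expected, plus the rest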;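 also: polarization loss reports compound binding to salmon sperm DNA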
Yeast UUG start-2 – enhancers of UUG start codon usage in yeast, dose response, S. cerevisiae, UUG firefly luciferase, cherry-pick, set 2; AID 652061, 2013; shares compounds with Yeast UUG start-1; activation, % at 38 µM; 540 tested, under 10 active; luminescence, 4 h; 100% means double the DMSO signal;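 active = signal increase whose fitted curve reaches an absolute level of 40 at a concentration under 10 µM; inactive = activity opposite to the expected increase, or the rest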
RAD52 DNA ctr – DNA-binding compounds via dye displacement, dose response, artefact control for RAD52 inhibitor project, biochemical, fluorescence polarization, cherry-pick | AID 652128, 2013 | Salmon sperm DNA/acridine orange FP displacement | AC50, µM | shares compounds with RAD52 inh | 8% of 1,000 active;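 active = fitted half-maximal concentration for signal loss at or below twice the highest dose tested, in every separate run, actives reach about 64 µM in these data; inconclusive = runs disagree, or flat partial signal loss, or poor fit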
* marks the source's active call; other numbers are inactive results; i = inactive; u = inconclusive; x = no result given.

SMILES	Casp6 inh	RAD54 branch	GSIS activator	RAD52 inh	Yeast UUG start-1	PglD inh	DNA binding	RAD52 DNA ctr	others
C[C@@H]1CN([C@@H](C)CO)C(=O)c2cc(C3=CCCC3)cnc2O[C@H]1CN(C)C(=O)C1CC1	x	x	14.1	x	x	x	x	x
COc1ccc(NC(=O)N(C)C[C@H]2Oc3ccc(NC(=O)c4ccncc4)cc3CC(=O)N([C@@H](C)CO)C[C@H]2C)cc1	-1.5	-3.4	2.1	9.4	-2.1	-0.9	x	x
CC(=O)c1cc2c(cc1NC(=O)Cn1nc(C)c(C)c(C#N)c1=O)OCO2	-4.5	x	6.7	-5.3	x	x	x	x
CC(=O)Nc1cccc(-c2cc(NC(C)=O)c3ncc(-c4cccc(C(C)=O)c4)n3c2)c1	1.8	12.4	x	-28.6	-11.8	-1.1	x	x
CC(=O)Nc1cc(-c2cccc(C(=O)NCCN(C)C)c2)cn2c(-c3ccc(S(C)(=O)=O)cc3)cnc12	-27.4	56.5*	1.5	92.2*	-0.9	0.1	-17.2%	i
CC(=O)Nc1cc(-c2cccc(C(=O)NCCN(C)C)c2)cn2c(-c3ccccc3)cnc12	-8.3	64.3*	-6.3	90.1*	-5.2	2.9	4.3%	i
CC(=O)Nc1cc(-c2ccc(N3CCN(C)CC3)cc2)cn2c(-c3cccc(C(C)=O)c3)cnc12	-55.4	79.4*	x	70.0*	-7.5	1.1	-2.4%	i
CCOC(=O)c1ccc2ncc(C(=O)OCC)c(NCCCN3CCOCC3)c2c1	x	33.7	x	x	-11.3	-5.9	x	x
CCOC(=O)c1cnc2c(ccc3ccccc32)c1NCCCN(C)C	-10.7	123.5*	x	96.4*	-15.7	6.5	-18.5%	u
CCOC(=O)c1cnc2c(C)cc(C)cc2c1NCCCN1CCOCC1	-6.3	92.8*	18.6	68.4*	-0.7	-0.8	-21.9%	i
CCOC(=O)c1cnc2ccccc2c1NCCO	x	16.4	x	x	-12.0	-2.3	x	x
COc1cccc(NC(=O)CN(C)C(=O)COc2cc(C)ccc2Cl)c1	4.0	x	-29.9	-4.0	x	x	x	x
CCN(CC)CCCNC(=O)c1ccc2c3n(nc2c1)-c1ccc(Cl)cc1CO3	-1.4	52.1*	-7.6	64.8*	-7.3	0.2	-4.0%	i
CC(C)NC(=O)c1ccc2c3n(nc2c1)-c1ccc(Cl)cc1CO3	-2.8	-4.1	-12.2	5.5	-13.9	-5.9	x	x
COc1ccc2c3c([nH]c2c1)[C@H](CO)N(C(=O)c1ccccn1)CC31CCN(S(C)(=O)=O)CC1	x	x	9.5	x	x	x	x	x
CCOC(=O)c1c(-c2ccc(-c3ccccc3)cc2)csc1NC(=O)CNCCN(C)C	-216.5	53.5*	180.1*	95.2*	-22.9	-4.5	5.1%	i
CCN1CCN(c2ccc(Nc3ccnc4ccccc34)cc2)CC1	-46.7	78.2*	x	94.6*	-11.5	-1.2	-12.0%	i
Cc1ccc(Cn2c([N+](=O)[O-])cnc2C)cc1	x	0.4	-22.6	x	-5.6	-4.0	x	x
O=C(c1ccco1)N(CCCN1CCOCC1)c1nc(-c2ccc(Cl)cc2)cs1	x	2.4	29.8	x	12.4	10.3	x	x
CCN(CC)CCCN(C(=O)c1ccco1)c1nc(-c2ccc(Cl)cc2)cs1	0.4	58.9*	-20.2	78.9*	-0.6	-5.9	6.3%	i
O=C(NCCCN1CCCC1)c1cc2c(Cl)nc3ccccc3c2s1	-33.4	u	14.4	63.1*	486.5*	-7.6	-21.8%	42.3µM*	Yeast UUG start-2=5.2

An excerpt from above in order of number of heavy atoms, lowest first.
SMILES	Casp6 inh	RAD54 branch	GSIS activator	RAD52 inh	Yeast UUG start-1	PglD inh	DNA binding	RAD52 DNA ctr	others
CCN(CC)CCCN(C(=O)c1ccco1)c1nc(-c2ccc(Cl)cc2)cs1	0.4	58.9*	-20.2	78.9*	-0.6	-5.9	6.3%	i
CCN(CC)CCCNC(=O)c1ccc2c3n(nc2c1)-c1ccc(Cl)cc1CO3	-1.4	52.1*	-7.6	64.8*	-7.3	0.2	-4.0%	i
CCOC(=O)c1c(-c2ccc(-c3ccccc3)cc2)csc1NC(=O)CNCCN(C)C	-216.5	53.5*	180.1*	95.2*	-22.9	-4.5	5.1%	i
COc1ccc2c3c([nH]c2c1)[C@H](CO)N(C(=O)c1ccccn1)CC31CCN(S(C)(=O)=O)CC1	x	x	9.5	x	x	x	x	x
